Measured values reported in patent US20160302412A1, “USES OF SALICYLIC ACID” (UNIVERSITY OF TENNESSEE RESEARCH FOUNDATION, priority 2013, published 2016).

Tests used:
Bronco snap beans = assay: Snap bean laboratory tests: seed germination and root radical growth in modified ragdolls; assay type: in vivo; conditions: supplement to the standard seed treatment, compared to the distilled water control
[1] = tested on: soybean seedling diseases (Rhizoctonia solani, Macrophomina phaseolina, and Fusarium spp.); assay: Soybean field research test (seed, in-furrow fertilizer and potash form; Tables 15 to 18); conditions: in vivo

With `O=C[O-].O=C[O-].[Ca+2]` [calcium formate] the “length of the root radical of germinating seed two days after planting” value (shortened to “length”) (Bronco snap beans) was “significantly decreased”.
`CC(O)C(=O)[O-].CC(O)C(=O)[O-].O.O.O.O.O.[Ca+2]` (centres unmarked) [calcium lactate, calcium lactate pentahydrate] was tested, and the “length” value (Bronco snap beans) was “significantly decreased” and the “Stands of healthy plants” value [1] was “initially highest”.
With `O.O.O=C([O-])c1ccccc1O.O=C([O-])c1ccccc1O.[Ca+2]` [calcium salicylate, calcium salicylate dihyrate] the “length” value (Bronco snap beans) was “significantly decreased” and the “Stands of healthy plants” value [1] was “highest in early August”.
